Tests used:
[1] = target: human JAK1 (a.a. 837-1142) catalytic domain (Homo sapiens, UniProt P23458); experiment: In vitro JAK kinase assay (HTRF), JAK1; format: biochemical; conditions: 90 μM ATP, 500 nM peptide, room temperature 1 hr
Experimental: (§1) One or more compounds herein were tested for inhibitory activity of JAK targets according to the following in vitro assay described in Park et al., Analytical Biochemistry 1999, 269, 94-104. The catalytic domains of human JAK1 (a.a. 837-1142), JAK2 (a.a. 828-1132) and JAK3 (a.a. 781-1124) with an N-terminal His tag were expressed using baculovirus in insect cells and purified. The catalytic activity of JAK1, JAK2 or JAK3 was assayed by measuring the phosphorylation of a biotinylated peptide. The phosphorylated peptide was detected by homogenous time resolved fluorescence (HTRF). […] The ATP concentration in the reactions was 90 μM for JAK1, 30 μM for JAK2 and 3 μM for JAK3. Reactions were carried out at room temperature for 1 hr and then stopped with 20 μL 45 mM EDTA, 300 nM SA-APC, 6 nM Eu-Py20 in assay buffer (Perkin Elmer, Boston, Mass.). Binding to the Europium labeled antibody took place for 40 minutes and HTRF signal was measured on a Fusion plate reader (Perkin Elmer, Boston, Mass.).

The chains behind the UniProt entries cited, without tags or fusion partners. Residues count along the entry.
UniProt P52333, 781-1124: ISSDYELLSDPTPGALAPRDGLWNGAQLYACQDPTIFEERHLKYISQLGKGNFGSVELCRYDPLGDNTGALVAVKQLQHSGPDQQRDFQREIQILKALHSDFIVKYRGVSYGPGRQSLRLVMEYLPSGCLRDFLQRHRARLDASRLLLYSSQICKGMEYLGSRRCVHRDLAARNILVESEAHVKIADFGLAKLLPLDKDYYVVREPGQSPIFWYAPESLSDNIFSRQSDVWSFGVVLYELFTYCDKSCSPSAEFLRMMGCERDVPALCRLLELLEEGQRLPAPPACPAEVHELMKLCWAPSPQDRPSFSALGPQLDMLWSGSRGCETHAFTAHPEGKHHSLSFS

[2] = target: human JAK3 (a.a. 781-1124) catalytic domain (Homo sapiens (Human), UniProt P52333); experiment: In vitro JAK kinase assay (HTRF), JAK3; format: biochemical; conditions: 3 μM ATP, 500 nM peptide, room temperature 1 hr
Experimental: as §1

Clc1cnc2nc1NCc1cc(Br)cc(c1)OCCCc1cccc(c1)N2 [Example 16, 12-Bromo-6-chloro-15-oxa-2,4,8,25-tetraazatetracyclo[17.3.1.1(3,7).1(10,14)]pentacosa-1(23),3(25),4,6,10(24),11,13,19,21-nonaene]
IC50 [1]: 0.015 µM | IC50 [2]: 0.015 µM

Source: patent publication US8765727B2, “Macrocyclic compounds and their use as kinase inhibitors” (Incyte Corporation, priority 2009, dated 2014)
